Measured values: patent US20110144331A1, “Cinnoline Compounds for the Treatment of Anxiety, Cognitive and Mood Disorders” (AstraZeneca AB, priority 2005, published 2011)

Amino acid sequences for entries named in this document (tags omitted).
UniProt P48039, whole entry: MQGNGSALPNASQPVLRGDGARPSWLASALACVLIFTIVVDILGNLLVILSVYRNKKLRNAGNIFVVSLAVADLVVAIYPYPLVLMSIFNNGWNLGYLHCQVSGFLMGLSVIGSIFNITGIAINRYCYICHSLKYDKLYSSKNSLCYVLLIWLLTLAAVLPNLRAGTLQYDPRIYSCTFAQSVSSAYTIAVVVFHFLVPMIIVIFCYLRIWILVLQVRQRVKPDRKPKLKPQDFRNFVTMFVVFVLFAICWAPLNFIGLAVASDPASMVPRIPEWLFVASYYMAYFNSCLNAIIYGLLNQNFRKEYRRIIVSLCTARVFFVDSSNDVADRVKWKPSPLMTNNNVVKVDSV

Molecular target: MT1 Receptor (Homo sapiens, UniProt P48039)
Assay: MT1 Receptor Binding

Row | SMILES | inhibition at 1 µM (1 μM) | inhibition at 1 µM
1 | CCCNC(=O)c1nnc2c(-c3ccc(OC)cc3OC)c(F)ccc2c1N | 88% | –
2 | CCCNC(=O)c1nnc2c(-c3cc(OC)ccc3OC)c(F)ccc2c1N | – | 93%

Read-outs that look alike come from different tables or passages of the source.
